Structures can show the parent of a compound that is named as a salt.
Legend:
[1] = biological target: T1, BIR3 domain of human cIAP-1 (residues 267-363) (Homo sapiens, UniProt Q13490); experiment: cIAP-1 in vitro competitive displacement binding assay (fluorescence polarization); conditions: percent inhibition (PI) at 0.012 μM; for inhibition at 0.012 µM: 3 h, read-out: cIAP1 IC50 or PI μM
T1 construct: human cIAP-1 (residues 267-363) fused to a GST-tag; GST-tag (cleaved yes); made in house; host or cells: Escherichia coli

The chains behind the UniProt entries cited, without tags or fusion partners. Residues count along the entry.
UniProt Q13490, 267-363: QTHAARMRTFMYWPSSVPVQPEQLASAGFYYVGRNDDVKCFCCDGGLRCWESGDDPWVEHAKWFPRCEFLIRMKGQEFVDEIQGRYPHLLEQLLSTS
UniProt P98170, 252-350: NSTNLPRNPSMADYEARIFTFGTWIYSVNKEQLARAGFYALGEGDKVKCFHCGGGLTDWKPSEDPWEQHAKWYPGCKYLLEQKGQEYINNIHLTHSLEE

[2] = biological target: T2, BIR3 domain of human XIAP (residues 252-350) (Homo sapiens, UniProt P98170); experiment: XIAP in vitro competitive displacement binding assay (fluorescence polarization); conditions: 1 h; percent inhibition (PI) at 0.04 μM; read-out: Xiap IC50 or PI μM
T2 construct: BIR3 domain of human XIAP (residues 252-350); His-tag (cleaved yes); made in house; host or cells: Escherichia coli

Compound | inhibition at 0.012 µM [1] | inhibition at 0.04 µM [2] | cIAP1 IC50 or PI μM ([1]; 180 min)
C[C@@H]1CN(CC(=O)N2CC(C)(C)c3ncc(Cc4ccc(F)cc4)cc32)[C@@H](CN2CC(C)(C)CC2=O)CN1 [Example 1, 1-{[(2R,5R)-1-(2-{6-[(4-Fluorophenyl)methyl]-3,3-dimethyl-1H,2H,3H-pyrrolo[3,2-b]pyridin-1-yl}-2-oxoethyl)-5-methylpiperazin-2-yl]methyl}-4,4-dimethylpyrrolidin-2-one dihydrochloride] | 98% |  | 
C[C@@H]1CN(CC(=O)N2CC(C)(C)c3ncc(Cc4ccc(F)cc4)cc32)[C@@H](CN2C[C@@H](C)OC2=O)CN1 [Example 9, (5R)-3-{[(2R,5R)-1-(2-{6-[(4-Fluorophenyl)methyl]-3,3-dimethyl-1H,2H,3H-pyrrolo[3,2-b]pyridin-1-yl}-2-oxoethyl)-5-methylpiperazin-2-yl]methyl}-5-methyl-1,3-oxazolidin-2-one] |  | 52% | 
C[C@@H]1CN(CC(=O)N2CC(C)(C)c3ncc(Cc4ccc(F)cc4)cc32)[C@@H](CN2CCC(F)(F)C2=O)CN1 [Example 11, 3,3-Difluoro-1-{[(2R,5R)-1-(2-{6-[(4-fluorophenyl)methyl]-3,3-dimethyl-1H,2H,3H-pyrrolo[3,2-b]pyridin-1-yl}-2-oxoethyl)-5-methylpiperazin-2-yl]methyl}pyrrolidin-2-one dihydrochloride] | 89% | 45% | 
C[C@@H]1CN(CC(=O)N2CC(C)(C)c3ncc(Cc4ccc(F)cc4)cc32)[C@@H](CN2Cc3ncccc3C2=O)CN1 [Example 15, 6-{[(2R,5R)-1-(2-{6-[(4-Fluorophenyl)methyl]-3,3-dimethyl-1H,2H,3H-pyrrolo[3,2-b]pyridin-1-yl}-2-oxoethyl)-5-methylpiperazin-2-yl]methyl}-5H,6H,7H-pyrrolo[3,4-b]pyridin-5-onne dihydrochloride] | 100% | 74% | 
C[C@@H]1CN(CC(=O)N2CC(C)(C)c3ncc(Cc4ccc(F)cc4)cc32)[C@@H](CN2CC(=O)NCC2=O)CN1 [Example 22, 1-{[(2R,5R)-1-(2-{6-[(4-Fluorophenyl)methyl]-3,3-dimethyl-1H,2H,3H-pyrrolo[3,2-b]pyridin-1-yl}-2-oxoethyl)-5-methylpiperazin-2-yl]methyl}piperazine-2,5-dione] |  | 38% | 
C[C@@H]1CN(CC(=O)N2CC(C)(C)c3ncc(Cc4ccc(F)cc4F)cc32)[C@@H](CN2Cc3ccccc3C2=O)CN1 [Example 76, 2-{[(2R,5R)-1-(2-{6-[(2,4-Difluorophenyl)methyl]-3,3-dimethyl-1H,2H,3H-pyrrolo[3,2-b]pyridin-1-yl}-2-oxoethyl)-5-methylpiperazin-2-yl]methyl}-2,3-dihydro-1H-isoindol-1-one dihydrochloride] | 100% | 84% | 
COc1ccc2c(c1)CN(C[C@H]1CN[C@H](C)CN1CC(=O)N1CC(C)(C)c3ncc(Cc4ccc(F)cc4)cc31)C2=O [Example 94, 2-{[(2R,5R)-1-(2-{6-[(4-Fluorophenyl)methyl]-3,3-dimethyl-1H,2H,3H-pyrrolo[3,2-b]pyridin-1-yl}-2-oxoethyl)-5-methylpiperazin-2-yl]methyl}-5-methoxy-2,3-dihydro-1H-isoindol-1-one dihydrochloride] |  | 83% | 96%@0.012
C[C@@H]1CN(CC(=O)N2CC(C)(C)c3ncc(Cc4ccc(F)cc4)cc32)[C@@H](CN2Cc3cccnc3C2=O)CN1 [Example 95, 6-{[(2R,5R)-1-(2-{6-[(4-Fluorophenyl)methyl]-3,3-dimethyl-1H,2H,3H-pyrrolo[3,2-b]pyridin-1-yl}-2-oxoethyl)-5-methylpiperazin-2-yl]methyl}-5H,6H,7H-pyrrolo[3,4-b]pyridin-7-one dihydrochloride] | 98% | 72% | 

Source: patent US9617283B2, “Bicyclic heterocycle compounds and their uses in therapy” (ASTEX THERAPEUTICS LIMITED, priority 2012, dated 2017)
